Data on two compounds can be found in PubChem BioAssay AID651711 (Broad Institute, 2012).

By UniProt entry, the sequences of proteins in these tests, tags left out.
UniProt Q15084, whole entry: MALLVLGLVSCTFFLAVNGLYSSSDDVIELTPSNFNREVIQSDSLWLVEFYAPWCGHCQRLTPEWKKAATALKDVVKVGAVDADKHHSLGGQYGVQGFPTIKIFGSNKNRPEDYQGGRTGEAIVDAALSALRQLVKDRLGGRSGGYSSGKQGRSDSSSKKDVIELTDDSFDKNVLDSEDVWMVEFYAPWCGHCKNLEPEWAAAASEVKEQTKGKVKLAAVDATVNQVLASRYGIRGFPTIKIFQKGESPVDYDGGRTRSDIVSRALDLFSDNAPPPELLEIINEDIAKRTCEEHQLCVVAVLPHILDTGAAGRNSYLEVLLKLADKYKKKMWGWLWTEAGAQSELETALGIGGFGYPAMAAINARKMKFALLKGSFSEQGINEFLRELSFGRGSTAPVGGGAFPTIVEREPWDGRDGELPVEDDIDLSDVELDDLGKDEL

The entries are a selection whose mix differs from that of the whole data set. Activity calls are given as the source filed them.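 Rule for the calls: active = mean replicate inhibition above about 25%, with every replicate also reaching it (limit read from the data, passing the limit was not always enough); inconclusive = only one of those two criteria met; inactive = neither criterion met.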

This assay deals with Protein disulfide-isomerase A6 (Homo sapiens) (UniProt Q15084). Kind of assay: ERp5 (PDIA6) reductase activity blockers – biochemical, turbidity, absorbance 650 nm, single point, primary screen (AID 651711). Particulars: ERp5 insulin aggregation, 90 min, at 9.99 µM, hits give high values.
Broadly, the inhibition is the change of the read-out against control, counted positive when it falls. With `CCC(=O)N(c1ccccc1)C1(COC)CCN(CCc2cccs2)CC1`, the inhibition is inactive: -4.32%.
For `CCC(=O)N(c1ccccc1)C1(COC)CCN(CCn2nnn(CC)c2=O)CC1` the value was inactive: -2.19%.
